According to patent US10849867B2, “Methods and compositions for treating conditions associated with an abnormal inflammatory response” (First Wave Bio, Inc., priority 2015, dated 2020):

Assay: Pharmacokinetics following a single rectal administration to NZW rabbits (Example 11)
Format: in vivo, New Zealand White KBL Rabbit
Text: Following dosing, blood samples and rectal mucosa was obtained at indicated time points.

[1] = 0 h, single rectal administration, Treatment B 7.5, NZW rabbits
[2] = 24 h, single rectal administration, Treatment B 7.5, NZW rabbits

Niclosamide Plasma Concentrations, Subject 666 [1]: BLQ
Niclosamide Plasma Concentrations, Subject 667 [1]: BLQ
Niclosamide Plasma Concentrations, Subject 668 [1]: BLQ
Niclosamide Plasma Concentrations, Subject 669 [1]: BLQ
Niclosamide Plasma Concentrations, Subject 670 [1]: BLQ
Niclosamide Plasma Concentrations, Subject 670 (1 h, single rectal administration, Treatment B 7.5, NZW rabbits): BLQ
Niclosamide Plasma Concentrations, Subject 666 (4 h, single rectal administration, Treatment B 7.5, NZW rabbits): BLQ
Niclosamide Plasma Concentrations, Subject 668 (8 h, single rectal administration, Treatment B 7.5, NZW rabbits): BLQ
Niclosamide Plasma Concentrations, Subject 666 [2]: BLQ
Niclosamide Plasma Concentrations, Subject 668 [2]: BLQ
concentration at 1 h (male, New Zealand White KBL, rabbit, plasma, other: rectal, 7.5 mg, Niclosamide Plasma Concentrations, Mean, 1 h, single rectal administration, Treatment B 7.5, NZW rabbits): 3.93 ng/mL
concentration at 1 h (male, New Zealand White KBL, rabbit, plasma, other: rectal, 7.5 mg, Niclosamide Plasma Concentrations, Subject 666, 1 h, single rectal administration, Treatment B 7.5, NZW rabbits): 5.79 ng/mL
concentration at 1 h (male, New Zealand White KBL, rabbit, plasma, other: rectal, 7.5 mg, Niclosamide Plasma Concentrations, Subject 667, 1 h, single rectal administration, Treatment B 7.5, NZW rabbits): 2.98 ng/mL
concentration at 4 h (male, New Zealand White KBL, rabbit, plasma, other: rectal, 7.5 mg, Niclosamide Plasma Concentrations, Subject 667, 4 h, single rectal administration, Treatment B 7.5, NZW rabbits): 21.7 ng/mL
concentration at 1 h (male, New Zealand White KBL, rabbit, plasma, other: rectal, 7.5 mg, Niclosamide Plasma Concentrations, Subject 668, 1 h, single rectal administration, Treatment B 7.5, NZW rabbits): 2.81 ng/mL
concentration at 1 h (male, New Zealand White KBL, rabbit, plasma, other: rectal, 7.5 mg, Niclosamide Plasma Concentrations, Subject 669, 1 h, single rectal administration, Treatment B 7.5, NZW rabbits): 4.13 ng/mL
concentration at 1 h (male, New Zealand White KBL, rabbit, rectal mucosa, other: rectal, 7.5 mg, Niclosamide Rectal Concentration, Mean, rectal mucosa after 1 hour, single rectal administration (7.5 mg), rabbits): 22.6 ng/mL
concentration at 1 h (male, New Zealand White KBL, rabbit, rectal mucosa, other: rectal, 7.5 mg, Niclosamide Rectal Concentration, Subject 669, rectal mucosa after 1 hour, single rectal administration, rabbits): 12.3 ng/mL
concentration at 1 h (male, New Zealand White KBL, rabbit, rectal mucosa, other: rectal, 7.5 mg, Niclosamide Rectal Concentration, Subject 670, rectal mucosa after 1 hour, single rectal administration, rabbits): 32.8 ng/mL
Compound: O=C(Nc1ccc([N+](=O)[O-])cc1Cl)c1cc(Cl)ccc1O [Niclosamide, 5-chloro-N-(2-chloro-4-nitrophenyl)-2-hydroxybenzamide]
